We go through one molecule from patent publication US20260216325A1, “NOVEL IMIDAZOPYRIMIDINE COMPOUND AND USES THEREOF” (The Children's Medical Center Corporation, priority 2023, published 2026).

Read-outs that look alike come from different tables or passages of the source.

For this assay, the system named is human adult PBMCs. Particulars: for TNF production / TNF-inducing efficacy: various concentrations.

Consider `Cc1cnc2nc(-c3ccc(C)c(NC(=O)c4ccc(CN)cc4C(F)(F)F)c3)cn2c1` [Compound (1), 4-(Aminomethyl)-N-(2-methyl-5-(6-methylimidazo[1,2-a]pyrimidin-2-yl)phenyl)-2-(trifluoromethyl) benzamide], for which the “EC50 (TNF induction)” value (human PBMC in vitro, compared to PVP-037.1 and R848) was “lower EC50”. Further, the “TNF production / TNF-inducing efficacy” value (human adult PBMCs, 18 hrs, compared to PVP-037.1 and R848) is recorded as “greater TNF-inducing efficacy”; the “TNF production / TNF-inducing efficacy” value (human adult PBMCs, 18 hrs, compared to PVP-037.1 and R848, listed as PVP-037.2) is recorded as “augmented TNF production”. Further, the “potency (TNF production)” value (human adult PBMCs, 18 hrs, among R848, PVP-037.1 and PVP-037.2) is reported as “most potent molecule”.
